Test results taken from PubChem BioAssay (Tox21).
“And” between values parts separate entries of the source, which are not always exact repeats. Equal entries are not always repeated. The list shows a part of the results, in another mix than the full data. Results filed as inconclusive are left out. The source made the active and inactive calls. Unless noted, calls come from the whole dose curve; as a rule, active = well fitted curve in the direction sought with a large enough effect in the repeat runs; inconclusive = weak or mixed curves; inactive = no such curve, though single readings can be large; an effect the other way counts as inactive or inconclusive.

Protein sequences, listed by entry. Tags and fused reporters are not part of them.
UniProt Q14994, whole entry: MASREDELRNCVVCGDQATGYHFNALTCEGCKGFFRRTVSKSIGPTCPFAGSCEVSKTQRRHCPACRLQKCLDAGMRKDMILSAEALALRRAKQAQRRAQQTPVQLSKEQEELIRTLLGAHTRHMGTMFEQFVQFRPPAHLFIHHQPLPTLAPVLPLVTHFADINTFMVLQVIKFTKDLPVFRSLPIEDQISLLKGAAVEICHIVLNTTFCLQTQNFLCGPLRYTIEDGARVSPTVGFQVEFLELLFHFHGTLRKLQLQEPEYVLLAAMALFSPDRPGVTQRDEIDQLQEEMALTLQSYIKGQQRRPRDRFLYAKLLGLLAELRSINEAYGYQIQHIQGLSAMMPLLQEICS
UniProt P34981, whole entry: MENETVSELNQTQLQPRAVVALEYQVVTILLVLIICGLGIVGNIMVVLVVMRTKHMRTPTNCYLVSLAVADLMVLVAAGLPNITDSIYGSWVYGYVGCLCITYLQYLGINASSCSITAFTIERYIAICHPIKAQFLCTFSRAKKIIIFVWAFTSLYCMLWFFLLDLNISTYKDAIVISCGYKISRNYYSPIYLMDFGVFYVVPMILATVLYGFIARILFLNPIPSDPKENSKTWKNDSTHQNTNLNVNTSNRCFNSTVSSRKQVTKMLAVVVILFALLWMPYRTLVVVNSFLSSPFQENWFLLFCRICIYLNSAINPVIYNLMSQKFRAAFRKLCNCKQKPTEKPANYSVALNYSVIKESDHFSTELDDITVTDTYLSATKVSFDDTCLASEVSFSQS

Key:
[1] = qHTS assay for small molecule disruptors of the mitochondrial membrane potential (AID 720635); details: HepG2 mitochondrial membrane potential, Mito-MPS dye ratio; note: potency is the fitted concentration of half-maximal effect
Procedure, shortened: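 HepG2 cells exposed to compound 1 hr at 37C, then Mito-MPS dye 30 min. Ratio read of aggregate (540/590 nm) versus monomer (490/535 nm) fluorescence.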

[2] = qHTS assay to identify aromatase inhibitors - cell viability counter screen (AID 743084); details: MCF-7 aro ERE viability, CellTiter-Fluor, 24 h; series mostly up to 70.3 µM;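 note: cells stimulated with testosterone during compound exposure; potency is the fitted concentration of half-maximal effect; nearly all actives have a fitted effect of over 55% in size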
[3] = target: Nuclear receptor ROR-gamma (Homo sapiens) (UniProt P51449); assay: qHTS assay to identify small molecule antagonists of the retinoid-related orphan receptor gamma (ROR-gamma) signaling pathway (AID 1159521; note: potency is the fitted concentration of half-maximal effect; nearly all actives have a fitted effect of over 50% in size); details: Tet-on RORgamma CHO cells, RORE-luciferase, 16 h
[4] = qHTS assay to identify small molecule agonists of the AP-1 signaling pathway - cell viability counter screen (AID 1159525; calls by dose curve; note: potency is the fitted concentration of half-maximal effect; nearly all actives have a fitted effect of over 55% in size); details: ME-180 (cervical carcinoma) AP-1-bla cells viability, ATP luminescence, 5 h
Procedure, shortened: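 Same-well cytotoxicity counter screen of the Tox21 10K library in ME-180 cells. The readout is ATP-dependent luminescence after 5 h compound treatment. Data are normalised to DMSO and tetra n-octyl ammonium bromide controls.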

[5] = qHTS assay to identify small molecule agonists of the RXR signaling pathway - cell viability counter screen (AID 1159529); details: RXR-alpha-bla HEK293T viability, CellTiter-Glo, 16 h; note: potency is the fitted concentration of half-maximal effect; nearly all actives have a fitted effect of over 50% in size
Procedure, shortened: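 Tox21 10K compounds were tested for cytotoxicity against GeneBLAzer RXR-alpha HEK 293T cells grown in 2% charcoal-stripped FBS. Exposure lasted 16 hr at 37 C, 5% CO2; viability read by CellTiter-Glo luminescence.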

[6] = target: Nuclear receptor subfamily 1 group I member 3 (Homo sapiens) (UniProt Q14994); assay: qHTS assay to identify small molecule agonists of the constitutive androstane receptor (CAR) signaling pathway (AID 1224839); details: HepG2 hCAR CYP2B6-luciferase, agonist mode, 24 h; series mostly up to 92.4 µM; note: potency is the fitted concentration of half-maximal effect; nearly all actives have a fitted effect of over 15% in size
[7] = qHTS assay to identify small molecule antagonists of the estrogen related receptor signaling pathway with the pleiotropic PPARgamma coactivator (PGC) from Tox21 10K library - cell viability counter screen (AID 1224840; active = well fitted cell-killing curve with a large enough effect in the repeat runs, not every such curve was filed as active; note: nearly all actives have a fitted effect of over 40% in size); details: PGC/ERR reporter cells viability, CellTiter-Fluor, 17.5 h; series mostly up to 92.4 µM
Procedure, shortened: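 Counter-screen for cytotoxicity: after 17.5 h compound exposure at 37 C, CellTiter-Fluor reagent added to PGC/ERR cells for 30 min and fluorescence read. Cells were seeded at 2,000 per well 6 h before dosing.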

[8] = A CellTox Green Cytotoxicity Assay to monitor cytotoxicity in HEK293 cells - 40 hour (AID 1224871); details: CellTox Green fluorescence; note: potency is the fitted concentration of half-maximal effect; nearly all actives have a fitted effect of over 45% in size
Procedure, shortened: (§1)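 Fluorescence from a DNA-binding dye excluded by viable cells was measured repeatedly in the same HEK293 wells (600 cells/well) during continuous compound exposure at 37 C. Each assay gives one read point: 0, 8, 16, 24, 32 or 40 h.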

[9] = A CellTox Green Cytotoxicity Assay to monitor cytotoxicity in HEK293 cells - 24 hour (AID 1224875); details: CellTox Green fluorescence; note: potency is the fitted concentration of half-maximal effect; nearly all actives have a fitted effect of over 45% in size
Procedure, shortened: as §1

[10] = A CellTox Green Cytotoxicity Assay to monitor cytotoxicity in HepG2 cells - 40 hour (AID 1224879); details: CellTox Green fluorescence; series mostly up to 35.3 µM; note: potency is the fitted concentration of half-maximal effect; nearly all actives have a fitted effect of over 40% in size
Procedure, shortened: (§2)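 Real-time cytotoxicity: fluorescence of a cell-impermeant cyanine dye binding DNA of dead HepG2 cells, measured repeatedly (0–40 h) during compound exposure at 37 C. Cells seeded 600/well with reagent, dosed after 5 h.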

[11] = A CellTox Green Cytotoxicity Assay to monitor cytotoxicity in HEK293 cells - 32 hour (AID 1224881); details: CellTox Green fluorescence; note: potency is the fitted concentration of half-maximal effect; nearly all actives have a fitted effect of over 40% in size
Procedure, shortened: as §1

[12] = A CellTox Green Cytotoxicity Assay to monitor cytotoxicity in HEK293 cells - 8 hour (AID 1224884); details: CellTox Green fluorescence; series mostly up to 76.8 µM; note: potency is the fitted concentration of half-maximal effect; nearly all actives have a fitted effect of over 35% in size
Procedure, shortened: as §1

[13] = A CellTox Green Cytotoxicity Assay to monitor cytotoxicity in HEK293 cells - 16 hour (AID 1224888); details: CellTox Green fluorescence; note: potency is the fitted concentration of half-maximal effect; nearly all actives have a fitted effect of over 35% in size
Procedure, shortened: as §1

[14] = A CellTox Green Cytotoxicity Assay to monitor cytotoxicity in HepG2 cells - 8 hour (AID 1224890); details: CellTox Green fluorescence; note: potency is the fitted concentration of half-maximal effect; nearly all actives have a fitted effect of over 45% in size
Procedure, shortened: as §2

[15] = qHTS assay to identify small molecule antagonists of the estrogen receptor alpha (ER-alpha) signaling pathway using the BG1 cell line in the presence of 0.1 nM 17-beta-estradiol - cell viability counter screen (AID 1259241); details: VM7Luc4E2 (BG1) viability, CellTiter-Fluor protease, 22 h; 0.1 nM estradiol agonist added; note: potency is the fitted concentration of half-maximal effect; nearly all actives have a fitted effect of over 40% in size
Procedure, shortened: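 Viability in VM7Luc4E2 cells after 22 hr compound exposure under 0.1 nM 17beta-estradiol stimulation, by CellTiter-Fluor.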

[16] = qHTS assay to identify small molecule antagonists of the sonic hedgehog signaling (Shh) pathway - cell viability counter screen (AID 1259367); details: NIH/3T3 Gli1-Luc viability, CellTiter-Fluor, 24 h; note: potency is the fitted concentration of half-maximal effect; nearly all actives have a fitted effect of over 55% in size
Procedure, shortened: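 Tox21 library chemicals were tested on a Gli1-Luc NIH/3T3 clone (2,000 cells/well) stimulated by conditioned medium; viability was quantified as fluorescence from CellTiter-Fluor reagent added at 23 hr.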

[17] = qHTS assay to identify small molecule antagonists of the sonic hedgehog signaling (Shh) pathway (AID 1259369; calls by dose curve; note: potency is the fitted concentration of half-maximal effect; nearly all actives have a fitted effect of over 45% in size); details: NIH/3T3 Gli1-Luc reporter, Shh antagonist, luminescence 24 h
Procedure, shortened: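 Antagonist mode: compound added to 3T3 Gli1-Luc cells followed by conditioned-medium stimulation, 24 h at 37 C, 5% CO2. Inhibition taken as loss of Gli1-driven luciferase luminescence.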

[18] = qHTS assay to identify small molecule agonists of the androgen receptor (AR) signaling pathway in the presence of an antagonist - cell viability counter screen (AID 1259379); details: MDA-kb2 viability, CellTiter-Fluor, 16 h; note: potency is the fitted concentration of half-maximal effect; nearly all actives have a fitted effect of over 25% in size
Procedure, shortened: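 Cytotoxicity counter-screen run in the same wells as the nilutamide-challenged (3.0 µM final) AR agonist assay in MDA-kb2 cells. Compounds tested at 15 concentrations for 16 h, 37 °C without CO2; CellTiter-Fluor fluorescence read.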

[19] = qHTS assay to identify small molecule antagonists of the progesterone receptor (PR) signaling pathway - cell viability counter screen (AID 1346798); details: PR-UAS-bla HEK293T viability, CellTiter-Glo luminescence, 16 h; series mostly up to 92.4 µM; note: potency is the fitted concentration of half-maximal effect; nearly all actives have a fitted effect of over 50% in size
Procedure, shortened: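 Viability was determined by ATP-based luminescence (CellTiter-Glo) in PR-UAS-bla HEK293T cells cultured in 2% charcoal-stripped serum and incubated 16 hr with compounds under R5020 stimulation.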

[20] = target: Thyrotropin-releasing hormone receptor (Homo sapiens) (UniProt P34981); assay: qHTS assay to identify small molecule agonists of the thyrotropin-releasing hormone receptor (TRHR) signaling pathway (AID 1346891; calls by dose curve; note: potency is the fitted concentration of half-maximal effect); details: TRHR-HEK293 calcium fluorescence, agonist mode
[21] = Caspase-3/7 induction in CHO-K1 cells by small molecules, qHTS cell viability counter screen (AID 1346979); details: CellTiter-Fluor fluorescence, 17 h; series mostly up to 92.4 µM; note: potency is the fitted concentration of half-maximal effect; nearly all actives have a fitted effect of over 35% in size
Procedure, shortened: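 Seeding: 1,500 CHO-K1 cells/well. Rest: 5hr, 37C. Treatment: compounds in DMSO, 16hr. Read: CellTiter-Fluor, 1hr, fluorescence.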

Measured: Potency

Cc1ccc([N+](=O)[O-])c([N+](=O)[O-])c1
active: [1] 62.4 µM and 61.1 µM | [2] 62.4 µM | [3] 31.3 µM and 43.3 µM | [4] 56.1 µM | [5] 31.5 µM | [6] 34.4 µM | [8] 17.4 µM | [9] 15.5 µM | [10] 17.4 µM | [11] 15.5 µM | [12] 15.5 µM | [13] 15.5 µM | [14] 15.5 µM | [15] 62.4 µM | [16] 49.5 µM | [17] 22.1 µM and 43.3 µM | [18] 62.4 µM | [19] 55.6 µM | [20] 12.3 µM | [21] 55.6 µM
inactive: [7]
